The results in this text go back to PubChem BioAssay AID504891 (National Center for Advancing Translational Sciences (NCATS), 2011).

By UniProt entry, the sequences of proteins in these tests, tags left out.
UniProt Q13526, whole entry: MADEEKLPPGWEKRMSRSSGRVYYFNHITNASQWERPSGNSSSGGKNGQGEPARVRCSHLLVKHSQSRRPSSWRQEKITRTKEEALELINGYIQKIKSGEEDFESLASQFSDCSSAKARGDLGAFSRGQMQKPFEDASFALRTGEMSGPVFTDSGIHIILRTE

This is a selection; strong and weak results do not stand in their true shares. Inconclusive results are not listed. Active and inactive are the calls of the source. Calls come from the whole dose curve; as a rule, active = well fitted inhibition curve with a large enough effect in the polarisation, with a control signal flat (not every such curve was filed as active); inconclusive = small, poorly fitted or top-dose-only effect, or effect the other way, or a change in a side signal; inactive = no such curve, though single readings can be large or run the other way; the % refers to the polarisation.
% is set by controls: 0 for no effect and ±100 for the full control effect.

The assay concerns the target Peptidyl-prolyl cis-trans isomerase NIMA-interacting 1 (Homo sapiens) (UniProt Q13526). Description: qHTS Assay to Find Inhibitors of Pin1. The note with it: Pin1 FP peptide displacement, HiFluor488, 10 min; at 115 µM (top of the series).
Take `CC1=NCCc2c1[nH]c1ccccc21.O=[N+]([O-])c1cc([N+](=O)[O-])c(O)c([N+](=O)[O-])c1`: the activity, negative = inhibition is inactive: 20.1%.
Under `CCOC(=O)c1ccc(NP(C)(=O)Oc2cc(C)cc(C)c2)cc1` (stereo unspecified) stands inactive: 0.859%; under `Cc1cc(C)cc(OP(C)(=O)Nc2ccc(C)cc2C)c1` (stereo unspecified), inactive: -4.07%.
Then `COc1ccccc1OP(C)(=O)Nc1cccc(Br)c1` (stereo unspecified), with inactive: 0.386%; and `Cc1ccc(C)c(NP(C)(=O)Oc2ccccc2)c1` (stereo unspecified), with inactive: 0.88%.
Then `Cc1cc(C)cc(OP(C)(=O)Nc2ccccn2)c1` (stereo unspecified), with inactive: -2.21%; and `CP(=O)(Nc1cccc(Br)c1)Oc1ccccc1` (stereo unspecified), with inactive: -0.864%; and `O=[N+]([O-])c1cc([N+](=O)[O-])c(-n2nnc3ccccc32)c([N+](=O)[O-])c1`, with inactive: -2.63%.
On to `Cc1nc2ccc3ccccc3c2s1.O=[N+]([O-])c1cc([N+](=O)[O-])c(O)c([N+](=O)[O-])c1`, for which the activity, negative = inhibition is inactive: -7.85%.
Under `O=[N+]([O-])c1cc([N+](=O)[O-])c(-c2cnn(-c3ccccc3)c2)c([N+](=O)[O-])c1` stands inactive: -0.607%; under `O=[N+]([O-])c1cc([N+](=O)[O-])c(Nc2nnnn2CCO)c([N+](=O)[O-])c1`, inactive: 1.33%.
Under `CCCOc1ccc(NP(C)(=O)Oc2ccc(Cl)cc2)cc1` (stereo unspecified) stands inactive: -0.654%.
Then `CP(=O)(Nc1ccc(SC(F)(F)F)cc1)Oc1ccccc1` (stereo unspecified), with inactive: 1.36%; and `CN1CCCCC1COC(=O)C1(O)c2ccccc2CCc2ccccc21` (stereo unspecified), with inactive: -1.09%; and `COc1ccccc1OP(C)(=O)Nc1c(C)cccc1C` (stereo unspecified), with inactive: 0.619%.
As for `CP(=O)(Nc1ccccc1Br)Oc1ccccc1` (stereo unspecified), the activity, negative = inhibition is inactive: -3.96%.
Under `COc1ccccc1OP(C)(=O)Nc1ccccc1` (stereo unspecified) stands inactive: -1.78%.
Then `CP(=S)(Nn1cnnc1)Oc1ccccc1` (stereo unspecified), with inactive: -3.33%; and `CP(=O)(NC(=O)Nc1ccccc1)Oc1ccccc1` (stereo unspecified), with inactive: 7.72%; and `CCc1ccc(OP(C)(=O)N2CCN(c3ccc([N+](=O)[O-])cc3)CC2)cc1` (stereo unspecified), with inactive: 2.84%.
Under `Cc1cc(C)cc(OP(C)(=O)Nc2ccc(SC(F)(F)F)cc2)c1` (stereo unspecified) stands inactive: -0.862%.
As to `CP(=O)(Nc1ccc(SC(F)(F)F)cc1)Oc1ccc(Cl)cc1` (stereo unspecified), the activity, negative = inhibition is inactive: -6.75%.
Under `Cc1cccc(C)c1OP(C)(=O)Nc1ccc(SC(F)(F)F)cc1` (stereo unspecified) stands inactive: 3.05%; under `CP(=O)(Oc1ccccc1)OC(c1ccccc1)C(F)(F)F` (stereo unspecified), inactive: -11.9%; under `CP(=O)(Nc1ccccn1)Oc1ccc(Cl)cc1` (stereo unspecified), inactive: 0.414%.
Then `O=[N+]([O-])c1cc([N+](=O)[O-])c(O)c([N+](=O)[O-])c1.c1ccc(Oc2ccncc2)cc1`, with inactive: -3.39%; and `CCOC(=O)c1ccc(NP(C)(=O)Oc2ccc(OC)cc2)cc1` (stereo unspecified), with inactive: 4.15%; and `CCOP(C)(=S)SCC(=O)NC(C)C(=O)O` (stereo unspecified), with inactive: -10.5%.
Consider `CCN(CC)CCCOC(=O)C(O)(c1ccccc1)c1ccccc1`, for which the activity, negative = inhibition is inactive: 3.05%.
Under `O=[N+]([O-])c1ccc2c(c1)C=Nc1ccccc1O2` stands inactive: 11.2%; under `Cc1cccc(C)c1OP(C)(N)=O` (stereo unspecified), inactive: -1.83%.
Then `O=[N+]([O-])c1cc([N+](=O)[O-])c(Nc2cccnc2)c([N+](=O)[O-])c1`, with inactive: -10.3%.
Then `Cc1cc(C)cc(OP(C)(N)=O)c1` (stereo unspecified), with inactive: -9.49%; and `COc1ccccc1OP(C)(=O)Nc1cc(Cl)ccc1C` (stereo unspecified), with inactive: -11.3%.
Take `COc1ccc(OP(C)(=O)Nc2cccc(F)c2)cc1` (stereo unspecified): the activity, negative = inhibition is inactive: -2.83%.
Then `COc1ccccc1OP(C)(=O)Nc1ccc(C)cc1` (stereo unspecified), with inactive: 1.19%.
Under `Cc1ccc(NP(C)(=O)Oc2ccccc2)c(C)c1` (stereo unspecified) stands inactive: -3.74%; under `CCOC(=O)c1ccc(NP(C)(=O)Oc2ccccc2)cc1` (stereo unspecified), inactive: 2.4%.
Then `COc1ccccc1OP(C)(=O)Nc1ccc(C)c(C)c1` (stereo unspecified), with inactive: -0.324%; and `COc1ccc(OP(C)(=O)Nc2ccccc2Br)cc1` (stereo unspecified), with inactive: 1.66%.
For `CP(=O)(Nc1ccc(Cl)cc1Cl)Oc1ccccc1` (stereo unspecified), the activity, negative = inhibition is inactive: -0.345%.
Under `CCCCCCCCCCCCCCCC1C[N+](C)(C)CCOP(C)(=O)O1` (stereo unspecified) stands inactive: 16.8%; under `CP(=O)(OCCOc1ccccc1)OCCOc1ccccc1`, inactive: -5.73%.
Take `CN(C)CCOC(=O)C(O)(c1ccccc1)C1CCCC1` (stereo unspecified): the activity, negative = inhibition is inactive: -8.93%.
As to `COc1ccccc1OP(C)(=O)Nc1ccc(Br)cc1` (stereo unspecified), the activity, negative = inhibition is inactive: -7.12%.
Under `CP(=O)(Nc1ccccn1)Oc1ccccc1` (stereo unspecified) stands inactive: -10.1%; under `COc1ccccc1OP(C)(=O)Nc1ccc(C)cc1C` (stereo unspecified), inactive: 5.05%; under `CCc1ccc(OP(C)(=O)O)cc1`, inactive: -0.209%.
Then `Cc1c(NP(C)(=O)Oc2ccc(C(C)C)cc2)c(=O)n(-c2ccccc2)n1C` (stereo unspecified), with inactive: -3.73%; and `O=[N+]([O-])c1cc([N+](=O)[O-])c(Nc2ccccn2)c([N+](=O)[O-])c1`, with inactive: 0.161%; and `COc1ccccc1OP(C)(=O)Nc1c(C)n(C)n(-c2ccccc2)c1=O` (stereo unspecified), with inactive: 4.3%.
For `O=C(OCCCN1CCCC1)C(O)(c1ccccc1)C1CCCCC1` (stereo unspecified), the activity, negative = inhibition is inactive: 2.25%.
Under `CP(=O)(Oc1ccccc1)N1CCOC1=O` (stereo unspecified) stands inactive: -6.03%; under `CCc1ccc(OP(C)(=O)Nc2cccnc2)cc1` (stereo unspecified), inactive: -10.2%; under `CCN(CC)CC(O)COC(=O)C(O)(c1ccccc1)C1CCCCC1` (stereo unspecified), inactive: -0.561%.
Then `COc1ccc(OP(C)(=O)Nc2ccc(Br)cc2)cc1` (stereo unspecified), with inactive: 7.17%; and `CN(C)C(=O)c1c([N+](=O)[O-])cc([N+](=O)[O-])cc1[N+](=O)[O-]`, with inactive: -2.12%.
Take `COc1ccccc1OP(C)(=O)Nc1ccccc1Br` (stereo unspecified): the activity, negative = inhibition is inactive: -5.32%.
Under `CC(C)(C)c1ccc(OP(C)(=O)O)cc1` stands inactive: -5.96%; under `CP(=O)(Nc1ccc(Cl)cc1)Oc1ccc(F)cc1` (stereo unspecified), inactive: -2.67%; under `CCOC(=O)c1ccc(NP(C)(=O)Oc2ccc(Cl)cc2)cc1` (stereo unspecified), inactive: -1.71%.
As to `CP(=O)(OC12CC3CC(CC(C3)C1)C2)OC12CC3CC(CC(C3)C1)C2`, the activity, negative = inhibition was inactive: 1.1%.
For `Nc1ccc2c(ccc3cccnc32)n1.O=[N+]([O-])c1cc([N+](=O)[O-])c(O)c([N+](=O)[O-])c1`, the activity, negative = inhibition was inactive: 3.98%.
Then `CN(C)CCOC(=O)C(O)(c1ccccc1)C1CCCCC1` (stereo unspecified), with inactive: 0.604%; and `COc1ccc(NP(C)(=O)Oc2ccccc2OC)cc1` (stereo unspecified), with inactive: 4.63%.
Then `COc1ccc(OP(C)(=O)Nc2cccc(Br)c2)cc1` (stereo unspecified), with inactive: 0.401%; and `Cc1c(C(c2ccc3c(c2)OCO3)c2c(C)n(C)n(-c3ccccc3)c2=O)c(=O)n(-c2ccccc2)n1C.O=[N+]([O-])c1cc([N+](=O)[O-])c(O)c([N+](=O)[O-])c1`, with inactive: -4.99%.
Under `O=[N+]([O-])c1ccc(OP2(=O)COCCO2)cc1` (stereo unspecified) stands inactive: 2.86%.
`Cc1cc(-c2cccc3ccccc23)c(C)cn1.O=[N+]([O-])c1cc([N+](=O)[O-])c(O)c([N+](=O)[O-])c1`: the activity, negative = inhibition was inactive: -1.94%.
Then `CCOP(C)(=S)SCC(=O)NC(C)(CC)C(=O)O` (stereo unspecified), with inactive: 1.22%; and `CP(=O)(Nc1ccc(SC(F)(F)F)cc1)Oc1ccc(F)cc1` (stereo unspecified), with inactive: -11%.
Under `Cc1ccccc1NP(C)(=O)Nc1ccccc1C` stands inactive: -9.43%; under `CP(=O)(Nc1ccc2c(c1)OCCO2)Oc1ccccc1` (stereo unspecified), inactive: 0.241%.
Then `CP(=O)(Nc1ccccc1F)Oc1ccccc1` (stereo unspecified), with inactive: 1.15%; and `O=C(OCCN1CCN(CCOCc2ccccc2)CC1)C(O)(c1ccccc1)c1ccccc1`, with inactive: -1.1%.
For the molecule `CCOC(=O)c1ccc(NP(C)(=O)Oc2ccc(F)cc2)cc1` (stereo unspecified), the activity, negative = inhibition is inactive: 3.24%.
In the case of `COc1ccc(OP(C)(=O)Nc2ccc(SC(F)(F)F)cc2)cc1` (stereo unspecified), the activity, negative = inhibition is inactive: -5.58%.
Under `CP(=O)(Nc1ccccc1)Oc1ccc(F)cc1` (stereo unspecified) stands inactive: -8.19%; under `CCCCCOc1ccc(NP(C)(=O)Oc2ccc(Cl)cc2Cl)cc1` (stereo unspecified), inactive: 2.91%.
Then `Cc1c([N+](=O)[O-])cc([N+](=O)[O-])c(Br)c1[N+](=O)[O-]`, with inactive: 17.4%; and `CCN(CC)CCCOC(=O)C(O)(c1ccccc1)C1CCCCC1` (stereo unspecified), with inactive: 5.27%.
